Test results from US8907092B2, “Inhibitors of IAP” (Genentech, Inc., priority 2007, dated 2014).

By UniProt entry, the sequences of proteins in these tests, tags left out. Chains listed by the source or under a name are the forms on record and can include a tag or linker. Residues count along the entry.
UniProt Q96CA5, 63-159 with tags or gaps S150G limits assumed: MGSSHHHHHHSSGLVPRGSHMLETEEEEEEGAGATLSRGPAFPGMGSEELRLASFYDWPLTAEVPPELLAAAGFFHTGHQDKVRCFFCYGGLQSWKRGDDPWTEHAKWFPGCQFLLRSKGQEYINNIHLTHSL

Biological target: MLXBIR3SG (Homo sapiens, UniProt Q96CA5, S150G)
Assay: Fluorescence Polarization Peptide Binding Assay
Details: competition with 5 nM AVP-diPhe-FAM probe, MLXBIR3SG at 30 nM
Procedure: In the following experiments was used a chimeric BIR domain referred to as MLXBIR3SG in which 11 of 110 residues correspond to those found in XIAP-BIR3, while the remainder correspond to ML-IAP-BIR. […] The improved caspase-9 inhibition of the chimeric BIR domain MLXBIR3SG has been correlated with increased inhibition of doxorubicin-induced apoptosis when transfected into MCF7 cells. […]
The reactions were read after an incubation time of 10 minutes at room temperature with standard cut-off filters for the fluorescein fluorophore (λex=485 nm; λem=530 nm) in 96-well black HE96 plates (Molecular Devices Corp.). Fluorescence values were plotted as a function of the protein concentration, and the IC50s were obtained by fitting the data to a 4-parameter equation using Kaleidograph software (Synergy software, Reading, Pa.). […] Samples were read after a 10-minute incubation. Fluorescence polarization values were plotted as a function of the antagonist concentration, and the IC50 values were obtained by fitting the data to a 4-parameter equation using Kaleidograph software (Synergy software, Reading, Pa.) Inhibition constants (Ki) for the antagonists were determined from the IC50 values.

Structure (SMILES)	IC50 [nM]
CCCC(=O)Nc1nc(-c2ccccc2)c(NC(=O)[C@@H]2CCCN2C(=O)[C@@H](NC(=O)[C@H](C)NC)C2CCN(C(=O)NCCCCCCNC(=O)N3CCC([C@H](NC(=O)[C@H](C)NC)C(=O)N4CCC[C@H]4C(=O)Nc4sc(NC(=O)CCC)nc4-c4ccccc4)CC3)CC2)s1	279
CCCC(=O)Nc1nc(-c2ccccc2)c(NC(=O)[C@@H]2CCCN2C(=O)[C@@H](NC(=O)[C@H](C)NC)C2CCN(C(=O)NCCCCNC(=O)N3CCC([C@H](NC(=O)[C@H](C)NC)C(=O)N4CCC[C@H]4C(=O)Nc4sc(NC(=O)CCC)nc4-c4ccccc4)CC3)CC2)s1	231
